We go through one molecule from patent US9643930B2, “Substituted indazole derivatives as in vitro MAO-B inhibitors” (“NTZ LAB” LTD., priority 2013, dated 2017).

Chains of the proteins cited; added tags and fusions are not shown.
UniProt P21397, whole entry: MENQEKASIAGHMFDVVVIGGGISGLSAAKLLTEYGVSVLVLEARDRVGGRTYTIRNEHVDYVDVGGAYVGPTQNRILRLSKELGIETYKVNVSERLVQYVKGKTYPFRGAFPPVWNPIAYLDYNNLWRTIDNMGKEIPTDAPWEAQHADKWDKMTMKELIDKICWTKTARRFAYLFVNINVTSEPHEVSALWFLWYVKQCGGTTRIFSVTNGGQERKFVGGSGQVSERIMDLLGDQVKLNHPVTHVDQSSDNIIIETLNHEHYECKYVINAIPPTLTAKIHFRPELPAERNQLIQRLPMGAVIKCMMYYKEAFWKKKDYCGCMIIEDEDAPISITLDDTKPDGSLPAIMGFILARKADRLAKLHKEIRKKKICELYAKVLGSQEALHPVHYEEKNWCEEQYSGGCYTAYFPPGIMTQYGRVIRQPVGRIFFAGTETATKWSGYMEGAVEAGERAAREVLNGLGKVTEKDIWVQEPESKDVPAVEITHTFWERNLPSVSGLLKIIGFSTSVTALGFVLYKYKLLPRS
UniProt P27338, whole entry: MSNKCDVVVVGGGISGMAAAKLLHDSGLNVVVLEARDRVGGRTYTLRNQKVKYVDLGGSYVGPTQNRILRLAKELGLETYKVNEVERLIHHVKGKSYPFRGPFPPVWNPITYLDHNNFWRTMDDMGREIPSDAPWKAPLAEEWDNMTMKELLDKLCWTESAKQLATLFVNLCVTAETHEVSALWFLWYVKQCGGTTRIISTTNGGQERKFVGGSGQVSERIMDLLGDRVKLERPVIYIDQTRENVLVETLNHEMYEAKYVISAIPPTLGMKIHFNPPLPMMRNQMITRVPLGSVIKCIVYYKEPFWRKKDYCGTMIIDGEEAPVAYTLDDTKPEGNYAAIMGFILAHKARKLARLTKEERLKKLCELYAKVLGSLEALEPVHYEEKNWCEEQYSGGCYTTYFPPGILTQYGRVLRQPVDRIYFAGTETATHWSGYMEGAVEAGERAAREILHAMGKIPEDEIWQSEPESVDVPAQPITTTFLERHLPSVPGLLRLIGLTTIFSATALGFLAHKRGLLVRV

The target of one test is human MAO-A (Homo sapiens, UniProt P21397). The test can be described thus: Human MAO-A assay (recombinant enzyme, Amplex Red fluorescence).
In another test the target is human MAO-B (Homo sapiens, UniProt P27338). The test can be described thus: Human MAO-B assay (recombinant enzyme, Amplex Red fluorescence). Conditions: FIG. 4, read-out: estimated IC50 value at human MAO-B (unit inferred). More on the design: purchased Sigma-Aldrich M7441; host or cells: baculovirus-infected insect cells (microsomal product). The format is biochemical.

As usually defined, the IC50 is the concentration that inhibits the measured activity by half. For the molecule `Cn1ncc2cc(C(=O)Nc3ccc(Cl)c(Cl)c3)ccc21` [Example 13], the IC50 at human MAO-A was more than 10000 nM; on human MAO-B, 0.386 ± 0.052 nM.
